Settings: Compound A Form II 10, 20, 30, 35 mg once daily for 4 days; healthy male volunteers

**Q.** For CC[C@@H]1SC2(CCN(C)CC2)NC1=O [Compound A, (S)-2-ethyl-8-methyl-1-thia-4,8-diazaspiro[4.5]decane-3-one], which “Plasma concentrations versus dose” value is on record?
**A.** increased dose-proportionally

**Q.** With CCC1SC2(CCNCC2)NC1=O (centres unmarked) [NGX292] as the molecule, how does the “Plasma concentrations versus dose” value read?
**A.** increased dose-proportionally

Source: patent US11866449B2, “Crystalline polymorphs of a muscarinic acetylcholine receptor agonist” (NSC Therapeutics GmbH, priority 2016, dated 2024)
